Yeast mating assay 2: variants of the scFv Ab-95

Values reported by Engelhart et al. 2022, doi:10.1038/s41597-022-01779-4 (FLAb copy).

All variants were tested on one target, the spike HR2 peptide PDVDLGDISGINAS (SARS-CoV-2).

Ab-95 is the parent antibody, in scFv form: VH, then a (GGGGS)3 linker, then VL. The heavy chain is unchanged in all variants.
VH: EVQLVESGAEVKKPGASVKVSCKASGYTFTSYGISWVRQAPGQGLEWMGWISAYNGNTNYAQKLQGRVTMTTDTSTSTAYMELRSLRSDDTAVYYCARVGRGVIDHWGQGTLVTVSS
VL: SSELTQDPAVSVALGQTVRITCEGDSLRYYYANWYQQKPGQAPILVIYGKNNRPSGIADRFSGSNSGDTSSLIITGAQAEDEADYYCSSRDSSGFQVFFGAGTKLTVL

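The parent was found by panning a naive human phage display library on the peptide. AAYL52 was designed without a model: most single CDR substitutions and a random sample of double and triple ones. The scFvs were displayed on barcoded MATa yeast, the peptide on MATalpha yeast. After mating in shaken culture at 30 °C for 16 h, diploids were selected and their barcode pairs sequenced. Each replicate has its own calibration line, from reference interactions of the BCL2 family. Mating was done three times.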

Changes read parent residue, position, new residue, counted from the first residue of the VL shown. Every variant below is changed at V97 of the VL (sequential numbering). Kd is apparent (estimated from mating counts) and averaged on the log scale over replicates with a signal. Smaller is tighter. A pair that was not seen in any replicate is written "nd"; this usually means weak binding, but a binder can also be missed. Background: pairings of library AAYL52 with three empty control strains gave a value in 28% of cases (median 8.2 µM, 5th percentile 800 nM). Values in that range, when seen in few replicates, are hard to tell from nonspecific mating.

Variant R53K/F95S/V97K showed nd (0 of 3 replicates). For D91C/V97Y, the assay gave 32 µM (2 of 3 replicates). Variant Y29R/G49Q/V97F showed 16 µM (1 of 3 replicates). With Y30M/S55D/V97P the result was 58 nM (3 of 3 replicates). Variant R53C/F95G/V97F gave 870 nM (1 of 3 replicates). Variant V97D gave 220 nM (3 of 3 replicates).

Variant Y29Q/N33P/V97D showed nd (0 of 3 replicates). With F95K/V97C/F98I the result was nd (0 of 3 replicates). Variant E23Y/N33D/V97A showed 41 µM (1 of 3 replicates). For E23D/N51K/V97T, the assay gave 4.6 µM (2 of 3 replicates). Variant D25P/N33S/V97L gave 3.6 µM (2 of 3 replicates). Variant V97I gave 1.7 µM (3 of 3 replicates).

With F95C/V97L the result was 30 µM (2 of 3 replicates). For V97R, the assay gave 340 nM (3 of 3 replicates). With L27S/P54G/V97I the result was nd (0 of 3 replicates). Variant D91N/S92T/V97T gave 210 µM (1 of 3 replicates). For R28A/D91W/V97H, the assay gave 7.9 µM (3 of 3 replicates). For D25Q/S26I/V97Q, the assay gave 110 µM (2 of 3 replicates).

For S26N/R90F/V97D, the assay gave 4.0 µM (3 of 3 replicates). With N51H/V97Y the result was 42 µM (1 of 3 replicates). With S88G/S89M/V97D the result was 1.3 µM (2 of 3 replicates). Variant Y29E/N51R/V97K showed nd (0 of 3 replicates). Variant Y29Q/S92A/V97F gave 3.2 µM (3 of 3 replicates). With Y29M/Y30T/V97R the result was 27 nM (3 of 3 replicates).

Variant Y31Q/S88C/V97P gave nd (0 of 3 replicates). Variant S55H/G94T/V97Q gave 2.1 µM (1 of 3 replicates). Variant N52P/V97I/F98I showed 3.9 µM (2 of 3 replicates). For D25E/P54H/V97R, the assay gave 8.9 µM (3 of 3 replicates). With E23G/R90A/V97N the result was nd (0 of 3 replicates). With Y30G/Y31C/V97L the result was 36 nM (3 of 3 replicates).

Variant Y29T/F95S/V97C showed 260 nM (3 of 3 replicates). Variant G24I/S55E/V97P gave 12 µM (3 of 3 replicates). Variant R28K/K50I/V97H gave 2.9 µM (3 of 3 replicates). For N51P/S89K/V97P, the assay gave 2.5 µM (1 of 3 replicates). Variant R28G/N33P/V97S showed nd (0 of 3 replicates). Variant S93A/V97E showed 19 µM (2 of 3 replicates).

Variant E23F/G49Q/V97N gave nd (0 of 3 replicates). Variant A32T/S89A/V97M gave 60 nM (3 of 3 replicates). With Y31V/G94I/V97N the result was nd (0 of 3 replicates). With D25C/Y31D/V97H the result was 44 nM (3 of 3 replicates). Variant G24W/R90E/V97D gave 11 µM (3 of 3 replicates). For S88D/V97I, the assay gave 160 µM (1 of 3 replicates).

The last 5 entries again:

With A32T/S89A/V97M the result was 60 nM (3 of 3 replicates).
With Y31V/G94I/V97N the result was nd (0 of 3 replicates).
With D25C/Y31D/V97H the result was 44 nM (3 of 3 replicates).
With G24W/R90E/V97D the result was 11 µM (3 of 3 replicates).
With S88D/V97I the result was 160 µM (1 of 3 replicates).

Parent in this assay: reference entry 200 nM, copy in this library 180 nM.